Values quoted from earlier work in US9901650B2, “Methods for evaluating brain-wide paravascular pathway for waste clearance function and methods for treating neurodegenerative disorders based thereon” (University of Rochester, priority 2013, dated 2018).

Details: injected into the CSF; cited from earlier work

albumin: protein, molecular size 66.5 kD, literature CSF tracer
proportion draining to the cervical lymphatics via the cribriform plate: ~50%
